# Binding of CDR-mutated scFvs to a peptide of the spike HR2 region

Source: Engelhart et al. 2022 (doi:10.1038/s41597-022-01779-4), MIT Lincoln Laboratory and A-Alpha Bio; data file from the FLAb repository.

All variants were tested on one target, the spike HR2 peptide PDVDLGDISGINAS (SARS-CoV-2).

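AAYL49 was designed without a model: most single CDR substitutions and a random sample of double and triple ones. The scFvs were displayed on barcoded MATa yeast, the peptide on MATalpha yeast. The frequency of each diploid, read from paired DNA barcodes, reflects how well the two displayed proteins bind. A regression on co-assayed BCL2-family reference pairs converts the normalised counts of each replicate to an apparent Kd. Each pool was mated in three replicate cultures.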

Parent scFv Ab-14: VH joined to VL by three GGGGS repeats. Changes lie in the heavy chain CDRs alone.
VH: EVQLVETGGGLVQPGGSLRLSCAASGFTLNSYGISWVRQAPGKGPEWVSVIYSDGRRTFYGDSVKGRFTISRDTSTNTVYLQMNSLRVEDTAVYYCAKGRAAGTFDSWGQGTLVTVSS
VL: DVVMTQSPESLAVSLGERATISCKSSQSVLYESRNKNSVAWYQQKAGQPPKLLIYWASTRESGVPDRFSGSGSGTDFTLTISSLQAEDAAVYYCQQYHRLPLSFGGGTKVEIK

The parent's heavy chain CDRs are GFTLNSYGIS, VIYSDGRRTFYGDSVK, GRAAGTFDS; each variant's own CDRs replace them letter for letter. The read-out is the apparent dissociation constant on a log10 scale (nM): the lower, the stronger. Averages over replicates are reported, and they cover detected replicates only. Where no diploid with the target was found in that replicate, the entry reads "nd": below detection, most likely a poor binder, though not proof of it.

CDR-H1 | CDR-H2 | CDR-H3 | log10 Kd, replicates | log10 Kd (nM), mean | signal with controls
GFTLYSYGIS | VIYSDGRRTFYGDSGK | GRAKGTFDS | nd nd nd | nd | 0/9
GFTLNSYGIS | VIYSDGRRTFYGDMVK | GRAAGTFDT | 0.63 0.69 0.66 | 0.66 | 1/9 (3.57)
GFTLNSYMIS | VIYSDGRRTFYGDSDK | GRAAGTFDS | 5.58 nd nd | 5.58 | 3/9 (4.48)
GFTLNSYYIS | VIYGDGRRTFYGDSVK | GRAAGTFDS | 5.25 nd nd | 5.25 | 0/9
GFTLNSYGIS | VIYSDGRRRFYGSSVK | GRAAGTFDS | nd nd nd | nd | 0/9
GFTLNSYGIS | VIYSDGRRTFYGDSVK | GRASGTGDS | nd nd nd | nd | 0/9
GFTLNSYGIS | VITSDGRRTFVGDSVK | GRAAGPFDS | nd nd nd | nd | 0/9
GFTLNSYGMV | VIYSDGTRTFYGDSVK | GRAAGTFDS | 5.11 nd nd | 5.11 | 0/9
GATCNSYGIS | VIYSDGRFTFYGDSVK | GRAAGTFDS | nd nd 4.16 | 4.16 | 2/9 (4.78)
GFTLNSYGIS | VIYSDGRRTFYGDSRY | GRAVGTFDS | nd nd nd | nd | 0/9
GFTLNSYGIK | VINSDGRRTFYGDSVK | GRAAGEFDS | nd nd nd | nd | 1/9 (4.47)
GFTTNSYGIS | VIYADGERTFYGDSVK | GRAAGTFDS | 2.86 4.58 nd | 3.72 | 1/9 (4.95)
GFTLNSYGIS | VIGSDGRATFYGDSVK | GHAAGTFDS | nd nd nd | nd | 0/9
GFTLNSYGIS | VIYSDANRTFYGDSVK | GRAAVTFDS | nd nd nd | nd | 0/9
GFNLVSYGWS | VIYSDGRRTFYGDSVK | GRAAGTFDS | nd nd nd | nd | 0/9
GFTLNSYGIS | VIYTDGRRTLYYDSVK | GRAAGTFDS | nd nd nd | nd | 2/9 (4.34)
GFTLNSYCIS | VIYSDGRRTFYCDSVK | GRAAGTKDS | nd 3.30 nd | 3.30 | 0/9
GFPLLSYGIS | VIYSDGRRTHYGDSVK | GRAAGTFDS | 1.81 2.19 2.34 | 2.11 | 3/9 (3.78)
GFTFNSYGIS | VIKSDGRRTFYGDSVK | GRAAGTFDS | nd nd nd | nd | 0/9
GFTLNPYGIS | VIYSDGRRTFYGDSVD | GRAAGTGDS | nd 2.92 4.10 | 3.51 | 0/9
GFTLNSYDIS | VIYSDGRRTFYGDNDK | GRAAGTFDS | nd nd nd | nd | 0/9
GFTLNSYGIS | VIYSDGRLTFVGDSVK | GRIAGTFDS | 4.16 2.93 3.57 | 3.56 | 1/9 (4.48)
GFTLNSYGVS | VIYSDWRATFYGDSVK | GRAAGTFDS | nd nd nd | nd | 0/9
GFTLNSYPIS | VIYSDGRRTFYGISVK | GRAAGTFDS | nd nd nd | nd | 0/9
GFTLNSVGIS | VIYSDGRRTFYGDSVK | GRAAGLFDQ | 2.29 1.77 2.77 | 2.28 | 0/9
GFTLNSYGIS | VIYSDGGRTFYGKSVK | GRAAGTFVS | 4.05 nd nd | 4.05 | 0/9
GFTLNSYGIQ | VIYSDGRRWFYGDSVK | GRRAGTFDS | nd nd nd | nd | 0/9
GFTLNSYGIS | VIKRDGRRTFYGDSVK | GRAAGTFDI | nd nd 4.85 | 4.85 | 1/9 (1.92)
GFTLNYYGIS | VIYSDGRRTFYGDSVK | GRTAGLFDS | 2.26 2.22 2.25 | 2.25 | 1/9 (4.69)
GFTLNSYGIS | VIYSDGRRTVYGDSVK | ARAAGTFDS | nd nd nd | nd | 0/9
GFTLNSYGES | VIYSDGRRTFYGDSVK | MRQAGTFDS | nd nd nd | nd | 1/9 (3.61)
GFTLNSYGID | VIYSDSRRTFYGDSYK | GRAAGTFDS | 4.04 nd nd | 4.04 | 1/9 (2.52)
GFTLNSYGIS | VIYSDARRTFYPSSVK | GRAAGTFDS | 4.07 nd nd | 4.07 | 1/9 (3.69)
GFTLNSYGIS | VIYLDPRRLFYGDSVK | GRAAGTFDS | nd 3.22 nd | 3.22 | 3/9 (3.69)
GFTLNSYGIS | VIRSDGRRTFYGASVK | GRAAGTFDS | nd nd nd | nd | 1/9 (4.17)
GFTLNSYGIS | VIYSDGRRTFYADSVK | GRAAGLPDS | -0.15 0.12 -0.05 | -0.03 | 4/9 (4.05)
GFTLNSYGIS | VIYAMGRRTFYDDSVK | GRAAGTFDS | nd 3.80 4.14 | 3.97 | 1/9 (5.62)
GFTLNSYGIS | VVYSDGRRTFYGDSVK | RRAAGTFVS | nd nd nd | nd | 0/9
NFTLNSYGIS | VIYEDGRRTFYGDSTK | GRAAGTFDS | nd nd nd | nd | 0/9
GFTLNSGGIS | VVYSDGRRTFYGDSVK | GRFAGTFDS | nd nd nd | nd | 0/9
GFTLNSYGIS | VIYSDGRRTFYGDSVG | GRPAWTFDS | nd nd nd | nd | 0/9
GFTLNSYGIS | VNVSDGRGTFYGDSVK | GRAAGTFDS | nd nd nd | nd | 2/9 (3.78)
GFTLNSIGIS | VIYSDGRRTFYWMSVK | GRAAGTFDS | nd nd nd | nd | 0/9
GFTLNSYGIS | VIYSDGRRTFYGDSVK | GRAAGTFHH | 0.70 1.06 0.80 | 0.85 | 3/9 (4.53)
GFCLNSYGIS | VIYSDGRRTFYGDSVK | GRAAGTFDS | 1.18 1.15 1.24 | 1.19 | 1/9 (4.43)
GFTLNSYGIS | VIYSDGRRTFYCDSVK | GRAAGTFDS | 0.67 0.83 0.71 | 0.74 | 1/9 (4.17)
GFTLNSYGIS | VLYSDGRRTFYGDSVK | GARAGTFDS | nd nd nd | nd | 0/9
GFTLHSYDIS | VIYSDGRRTFYGKSVK | GRAAGTFDS | nd nd nd | nd | 1/9 (4.69)
GFKLNSIGIS | VIYSDGRRTFYGDIVK | GRAAGTFDS | nd nd nd | nd | 1/9 (3.49)

The last 5 entries again:

{"CDR-H1": "GFCLNSYGIS", "CDR-H2": "VIYSDGRRTFYGDSVK", "CDR-H3": "GRAAGTFDS", "log10 Kd, replicates": "1.18 1.15 1.24", "log10 Kd (nM), mean": "1.19", "signal with controls": "1/9 (4.43)"}
{"CDR-H1": "GFTLNSYGIS", "CDR-H2": "VIYSDGRRTFYCDSVK", "CDR-H3": "GRAAGTFDS", "log10 Kd, replicates": "0.67 0.83 0.71", "log10 Kd (nM), mean": "0.74", "signal with controls": "1/9 (4.17)"}
{"CDR-H1": "GFTLNSYGIS", "CDR-H2": "VLYSDGRRTFYGDSVK", "CDR-H3": "GARAGTFDS", "log10 Kd, replicates": "nd nd nd", "log10 Kd (nM), mean": "nd", "signal with controls": "0/9"}
{"CDR-H1": "GFTLHSYDIS", "CDR-H2": "VIYSDGRRTFYGKSVK", "CDR-H3": "GRAAGTFDS", "log10 Kd, replicates": "nd nd nd", "log10 Kd (nM), mean": "nd", "signal with controls": "1/9 (4.69)"}
{"CDR-H1": "GFKLNSIGIS", "CDR-H2": "VIYSDGRRTFYGDIVK", "CDR-H3": "GRAAGTFDS", "log10 Kd, replicates": "nd nd nd", "log10 Kd (nM), mean": "nd", "signal with controls": "1/9 (3.49)"}

Nonspecific signal, from three strains lacking the peptide, appeared in 15% of pairings of library AAYL49, centred on 4.06 (5% of these signals below 2.83); values are not corrected for it. The control count says in how many pairings with the empty strains this scFv gave a signal, with their mean in brackets. For reference, the parent read 0.65 as the reference entry and 4.11 (one replicate of three) as a member of this library.